Laboratory results from article PMC6796883, “Molecular basis for hierarchical histone de-β-hydroxybutyrylation by SIRT3” (Cell Discovery, 2019).

What was measured:
SIRT3 = target: T1, SIRT3 (Homo sapiens, UniProt Q9NTG7); assay: ITC binding of histone acylation peptides to SIRT3; conditions: for Ka / deltaH / deltaS / N value: ITC, SIRT3, 25 °C; for N value: stoichiometry of fit
T1 construct: 10xHIS-SUMO (N, cleaved yes); made in house; host or cells: Escherichia coli BL21 (DE3)
T1 sequence (Q9NTG7 118-399): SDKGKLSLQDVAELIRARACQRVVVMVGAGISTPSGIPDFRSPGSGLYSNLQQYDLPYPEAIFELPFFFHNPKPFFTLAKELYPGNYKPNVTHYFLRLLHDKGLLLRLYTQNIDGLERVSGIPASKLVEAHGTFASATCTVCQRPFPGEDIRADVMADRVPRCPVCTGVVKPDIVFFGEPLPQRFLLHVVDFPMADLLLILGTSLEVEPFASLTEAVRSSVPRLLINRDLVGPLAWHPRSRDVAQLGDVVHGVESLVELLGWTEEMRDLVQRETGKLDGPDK

DPF domain of MOZ = conditions: H3K14bhb racemic mixture; read-out: binding of MOZ DPF domain; cited from earlier work
Procedure: (§1) We further checked the deacylation activity in cells with overexpressed SIRT3. Consistently, overexpression of wild type but not the H248Y mutant SIRT3 reduced bhb levels at sites H3K4, H3K9, H3K18 and H4K16, but not H4K5, H4K8, H4K12 (Fig. 6h). […] Of note, a “reading-and-writing” cross- ...

DPF domain of DPF2 = conditions: H3K14bhb racemic mixture; read-out: binding of DPF2 DPF domain; cited from earlier work
Procedure: as §1

Ka (SIRT3) | deltaH (SIRT3) [cal/mol] | deltaS (SIRT3) [cal/mol/deg] | N value (SIRT3) | Kd (SIRT3) [µM] | deltaS (SIRT3; listed as H3K14bhb) [cal/mol/deg] | SMILES | Kd (DPF domain of MOZ) [µM] | Kd (DPF domain of DPF2) [nM]
5.63E3 ± 286 M-1 | -8402 ± 257.7 | -11.0 | 1.00 | – | – | CC(C)C[C@H](NC(=O)[C@H](C)NC(=O)[C@H](CCCCNC(=O)CC(C)O)NC(=O)[C@H](C)NC(=O)CNC(=O)[C@H](CCCCN)NC(=O)CNC(=O)[C@H](CCCNC(=N)N)NC(=O)CNC(=O)[C@@H](N)CO)C(=O)NCC(=O)N[C@@H](CCCCN)C(=O)NCC(=O)NCC(=O)N[C@@H](C)C(=O)O (stereo partly shown) [H4G7A/G9A(1-15)K8bhb] | – | –
– | – | – | – | 205 | – | CC(O)CC(=O)NCCCC[C@H](NC(=O)CNC(=O)[C@H](CCCNC(=N)N)NC(=O)[C@H](C)N)C(=O)N[C@@H](CCC(N)=O)C(=O)N[C@H](C(=O)N[C@@H](C)C(=O)N[C@@H](CCCNC(=N)N)C(=O)N[C@@H](CCCCN)C(=O)N[C@@H](CO)C(=O)N[C@H](C(=O)NCC(=O)NCC(=O)N[C@@H](CCCCN)C(=O)N[C@@H](C)C(=O)O)[C@@H](C)O)[C@@H](C)O (stereo partly shown) [H3T3G(1-15)K4bhb] | – | –
– | – | – | – | 79.4 | – | CC(O)CC(=O)NCCCC[C@H](NC(=O)[C@@H](NC(=O)[C@H](CCCNC(=N)N)NC(=O)[C@H](C)N)[C@@H](C)O)C(=O)NCC(=O)N[C@H](C(=O)N[C@@H](C)C(=O)N[C@@H](CCCNC(=N)N)C(=O)N[C@@H](CCCCN)C(=O)N[C@@H](CO)C(=O)N[C@H](C(=O)NCC(=O)NCC(=O)N[C@@H](CCCCN)C(=O)N[C@@H](C)C(=O)O)[C@@H](C)O)[C@@H](C)O (stereo partly shown) [H3Q5G(1-15)K4bhb] | – | –
2.17E3 ± 39.2 M-1 | -1.294E4 ± 176.4 | -28.1 | 1.00 | – | −28.1 | CC(C)C[C@H](NC(=O)[C@H](CCC(N)=O)NC(=O)[C@H](CCCCN)NC(=O)[C@H](CCCNC(=N)N)NC(=O)[C@@H]1CCCN1C(=O)[C@H](C)NC(=O)[C@H](CCCCNC(=O)CC(C)O)NC(=O)CNC(=O)CNC(=O)[C@@H](NC(=O)[C@H](CO)NC(=O)[C@H](CCCCN)NC(=O)[C@H](CCCNC(=N)N)NC(=O)[C@H](C)N)[C@@H](C)O)C(=O)N[C@@H](C)C(=O)O (stereo partly shown) [H3(7-22)K14bhb] | 110 | 930
